## Permeability data for macrocyclic peptides

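Conditions beyond the assay type are not listed; see the original paper. The list need not hold all peptides of the study. Entries at the database's floor value (log10 P of -10) are not listed.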

MDCK: transport across canine kidney epithelial cells.
Permeability is given as log10 of P in cm/s; higher (less negative) is more permeable.

| structure (SMILES) | MDCK (log10 cm/s) |
|---|---|
| CC[C@H](C)[C@@H]1NC(=O)[C@H](CC(C)C)NC(=O)[C@H](CC(C)C)NC(=O)[C@H]2CCCN2C(=O)[C@H](Cc2ccccc2)NC(=O)[C@H](CC(C)C)NC1=O | -4.82 |
| CC(C)C[C@@H]1NC(=O)[C@H](CC(C)C)NC(=O)[C@@H](CC(C)C)NC(=O)[C@H](CC(C)C)NC(=O)[C@H]2CCCN2C(=O)[C@@H](Cc2ccccc2)NC1=O | -5.10 |
| CC(C)C[C@@H]1NC(=O)[C@H](CC(C)C)NC(=O)[C@@H](CC(C)C)NC(=O)[C@H](CC(C)C)NC(=O)[C@@H]2CCCN2C(=O)[C@@H](Cc2ccccc2)NC1=O | -4.48 |
| CC(C)C[C@@H]1NC(=O)[C@H](CC(C)C)NC(=O)[C@@H](CC(C)C)NC(=O)[C@H](Cc2ccccc2)NC(=O)[C@H]2CCCN2C(=O)[C@@H](Cc2ccccc2)NC1=O | -4.96 |
| CC[C@H](C)[C@@H]1NC(=O)[C@H](CC(C)C)NC(=O)[C@H](CC(C)C)NC(=O)[C@@H]2CCCN2C(=O)[C@H](Cc2ccccc2)NC(=O)[C@H](CC(C)C)NC1=O | -4.40 |
| CC(C)C[C@@H]1NC(=O)[C@H](CC(C)C)NC(=O)[C@@H](CC(C)C)NC(=O)[C@H](Cc2ccccc2)NC(=O)[C@@H]2CCCN2C(=O)[C@@H](Cc2ccccc2)NC1=O | -4.41 |

Source: CycPeptMPDB (Li et al. 2023), which took these values from Schwochert et al. 2016, doi:10.1021/acsmedchemlett.6b00100.